Reference: patent EP1595536A1, “PHARMACEUTICALS COMPRISING SHIKONINS AS ACTIVE CONSTITUENT” (Beijing JBC Chinese Traditional Medicine Science and …, priority 2003, dated 2004)

Columns and labels:
[1] = molecular target: HIV-1 reverse transcriptase (Human immunodeficiency virus type 1 group M subtype B, UniProt P04585); experiment: In vitro test resisting HIV reverse transcriptase
DHBV = experiment: Virus restraint in DHBV-infected duck; assay type: in vivo; conditions: oral

SMILES	IC50 [1] [nM]	inhibitory effect for DHBV-DNA level in blood serum of infected duck (DHBV; 50mg/kg group, P<0.05)	inhibitory effect for DHBV-DNA level in blood serum of infected duck (DHBV; 100mg/kg twice a day from 7th day after infection, in 10 days, P<0.05-0.01)
O=C(O)P(=O)(O)O [PFA]	770		
CC(C)=CCC(OC(=O)C=C(C)C)C1=CC(=O)c2c(O)ccc(O)c2C1=O (stereo not drawn)		significant inhibitory effect	prominent
